The source of these data is ChEMBL document CHEMBL1126435, “DuP 747: a new, potent, kappa opioid analgesic. Synthesis and pharmacology1” (Bioorg Med Chem Lett, 1992).

Sequences of proteins named here, by UniProt entry; tags and fusion partners are left off. A change or cut given only in a name is not applied to a line headed by its entry.
UniProt P41143, whole entry, looked up: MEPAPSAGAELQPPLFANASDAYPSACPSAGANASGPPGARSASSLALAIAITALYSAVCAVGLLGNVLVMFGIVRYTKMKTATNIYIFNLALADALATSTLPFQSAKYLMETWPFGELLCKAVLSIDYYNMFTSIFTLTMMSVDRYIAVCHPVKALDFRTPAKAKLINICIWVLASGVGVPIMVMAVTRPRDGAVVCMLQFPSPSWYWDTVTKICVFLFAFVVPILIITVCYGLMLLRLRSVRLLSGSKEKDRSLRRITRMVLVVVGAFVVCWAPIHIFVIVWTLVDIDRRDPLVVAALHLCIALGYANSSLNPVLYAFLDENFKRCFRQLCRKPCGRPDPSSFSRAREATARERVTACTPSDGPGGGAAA
UniProt P41145: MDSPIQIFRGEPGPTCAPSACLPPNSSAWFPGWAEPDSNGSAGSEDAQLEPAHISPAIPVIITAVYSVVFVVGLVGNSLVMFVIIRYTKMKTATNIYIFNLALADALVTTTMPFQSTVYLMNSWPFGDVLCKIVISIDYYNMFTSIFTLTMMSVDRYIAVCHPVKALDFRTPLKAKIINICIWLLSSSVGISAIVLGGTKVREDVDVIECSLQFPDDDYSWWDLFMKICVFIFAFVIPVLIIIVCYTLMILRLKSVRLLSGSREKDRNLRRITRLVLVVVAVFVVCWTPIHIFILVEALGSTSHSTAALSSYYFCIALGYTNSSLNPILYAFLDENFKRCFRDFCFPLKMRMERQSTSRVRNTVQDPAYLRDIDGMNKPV
UniProt P35372, whole entry, looked up: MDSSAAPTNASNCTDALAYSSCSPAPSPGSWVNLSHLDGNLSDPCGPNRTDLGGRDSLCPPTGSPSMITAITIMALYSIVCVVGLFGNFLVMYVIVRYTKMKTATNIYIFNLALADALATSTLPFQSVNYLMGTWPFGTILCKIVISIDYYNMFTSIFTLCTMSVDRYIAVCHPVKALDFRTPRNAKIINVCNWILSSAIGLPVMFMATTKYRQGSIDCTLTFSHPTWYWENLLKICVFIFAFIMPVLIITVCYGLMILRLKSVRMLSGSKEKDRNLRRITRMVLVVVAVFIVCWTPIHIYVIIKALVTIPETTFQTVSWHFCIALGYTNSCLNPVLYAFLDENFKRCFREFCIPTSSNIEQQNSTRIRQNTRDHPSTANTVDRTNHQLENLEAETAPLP
UniProt Q99720, whole entry, looked up: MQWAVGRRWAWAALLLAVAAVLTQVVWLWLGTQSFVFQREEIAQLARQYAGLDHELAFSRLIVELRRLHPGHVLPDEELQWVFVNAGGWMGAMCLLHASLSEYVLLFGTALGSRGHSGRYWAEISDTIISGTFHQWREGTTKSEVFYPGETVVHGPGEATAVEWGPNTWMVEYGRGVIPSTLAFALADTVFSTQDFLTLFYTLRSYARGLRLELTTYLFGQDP

A word on the Ki: it is the equilibrium dissociation constant of an inhibitor or competing ligand from its target. High values mean a looser hold on the target, low ones a stronger hold on the target.

The target in assay [1] is Delta-type opioid receptor (Homo sapiens, UniProt P41143).
The target in assay [2] is Kappa-type opioid receptor (Homo sapiens, UniProt P41145).
The target in assay [3] is Mu-type opioid receptor (Homo sapiens, UniProt P35372).
The target in assay [4] is Sigma non-opioid intracellular receptor 1 (Homo sapiens, UniProt Q99720).

For `CN(C(=O)Cc1ccc(Cl)c(Cl)c1)[C@H]1c2ccccc2CC[C@@H]1N1CCCC1`, the Ki in assay [1] was found to be 10 µM; in assay [2] it was 0.01 µM; in assay [3], 0.545 µM.

Turning to `CN(C(=O)Cc1ccc(Cl)c(Cl)c1)C1CCCCC1N1CCCC1` (centres undefined), the inhibition constant Ki was 21 µM in assay [1], 0.825 µM in assay [3] and 0.696 µM in assay [4].

As to `COc1cccc2c1CC[C@H](N1CCCC1)[C@H]2N(C)C(=O)Cc1ccc(Cl)c(Cl)c1`, the figures for the Ki in assay [1], in assay [2] and in assay [3] were 2.09 µM, 0.006 µM and 0.304 µM, respectively.
